Assay [1] deals with NMDA Receptor (MK-801 binding site). Put plainly: PDSP radioligand binding, NMDA receptor. As to conditions: Table 2.
For assay [2], the target named is T1, SERT (serotonin transporter) (Homo sapiens, UniProt P31645). Put plainly: biochemical.
Assay [3] concerns the target T1, SERT (serotonin transporter).

The chains behind the UniProt entries cited, without tags or fusion partners.
UniProt P31645, whole entry, species assumed: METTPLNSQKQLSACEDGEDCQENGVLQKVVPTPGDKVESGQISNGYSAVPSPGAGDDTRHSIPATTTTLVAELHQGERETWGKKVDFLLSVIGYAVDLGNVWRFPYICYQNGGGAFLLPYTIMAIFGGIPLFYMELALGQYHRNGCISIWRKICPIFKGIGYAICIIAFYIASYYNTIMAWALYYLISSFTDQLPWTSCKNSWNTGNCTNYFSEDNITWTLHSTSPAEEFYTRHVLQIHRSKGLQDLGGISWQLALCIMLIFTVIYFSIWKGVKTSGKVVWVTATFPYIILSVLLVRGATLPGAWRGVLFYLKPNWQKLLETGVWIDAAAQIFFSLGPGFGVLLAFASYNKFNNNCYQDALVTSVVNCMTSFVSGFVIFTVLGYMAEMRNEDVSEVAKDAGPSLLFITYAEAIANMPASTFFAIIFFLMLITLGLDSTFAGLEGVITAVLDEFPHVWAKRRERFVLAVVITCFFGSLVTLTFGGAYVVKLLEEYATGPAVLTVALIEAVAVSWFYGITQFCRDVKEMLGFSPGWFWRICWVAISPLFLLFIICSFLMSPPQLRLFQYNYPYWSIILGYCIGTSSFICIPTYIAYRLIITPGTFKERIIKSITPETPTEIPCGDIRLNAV

By Ki is commonly meant a measure of affinity in units of concentration, obtained from inhibition or displacement. For `CNC1(c2ccccc2Cl)CCCCC1=O` (racemic) [Ketamine, (RS)-2-(2-chlorophenyl)-2-(methylamino)cyclohexanone, reference compound], in assay [1] (read-out: NMDA (Ki)), the Ki is 659 nM.
In the case of `CCNC1(c2cccc(OC)c2)CCCCC1=O` (racemic) [Methoxetamine, (RS)-2-(ethylamino)-2-(3-methoxyphenyl)cyclohexanone], the “NMDA pKi +/− SD” value in assay [1] turned out to be 6.59±0.06. The compound also showed an inhibitory constant (Ki) in assay [2] of 481 nM. The “affinity for the serotonin transporter (SERT), in words” value in assay [3] is on record as “submicromolar affinities”.

The record behind these values is PMC3602154 (PLoS ONE, 2013).
